Laboratory results from ChEMBL document CHEMBL1139225, “Metabolism-based identification of a potent thrombin receptor antagonist” (J Med Chem, 2007).

Assays:
Rattus norvegicus [1] = assay: Drug level in rat plasma at 30 mg/kg after 1 day
Rattus norvegicus [2] = assay: Drug level in rat plasma at 30 mg/kg after 8 day

AUC at 24 h (Rattus norvegicus [1]): 21700 ng·h/mL | AUC at 192 h (Rattus norvegicus [2]): 21300 ng·h/mL
Compound: C[C@H]1OC(=O)[C@@H]2C[C@@H]3C[C@H](O)CC[C@H]3[C@H](/C=C/c3ccc(-c4cccc(C(F)(F)F)c4)cn3)[C@H]12
